{
  "sequences": {"note": "The chains behind the UniProt entries cited, without tags or fusion partners.", "UniProt P32300, whole entry": "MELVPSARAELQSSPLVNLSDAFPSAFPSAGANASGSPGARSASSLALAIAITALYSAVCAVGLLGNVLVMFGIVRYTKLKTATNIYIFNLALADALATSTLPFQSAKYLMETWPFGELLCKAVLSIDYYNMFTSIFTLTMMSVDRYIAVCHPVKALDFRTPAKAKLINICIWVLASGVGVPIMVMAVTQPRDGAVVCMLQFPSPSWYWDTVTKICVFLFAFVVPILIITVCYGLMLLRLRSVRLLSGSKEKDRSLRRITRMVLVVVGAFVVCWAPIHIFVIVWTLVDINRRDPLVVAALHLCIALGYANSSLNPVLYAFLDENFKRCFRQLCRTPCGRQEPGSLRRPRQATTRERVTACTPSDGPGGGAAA"},
  "source": "ChEMBL document CHEMBL1132844",
  "about": "“Assessment of substitution in the second pharmacophore of Dmt-Tic analogues” (Bioorg Med Chem Lett, 2000)",
  "target": "Delta-type opioid receptor (Mus musculus, UniProt P32300)",
  "data": [
    {"smiles": "CC(C)[C@H](NC(=O)[C@H](CC(=O)O)NC(=O)[C@H](Cc1ccccc1)NC(=O)[C@@H](C)NC(=O)[C@@H](N)Cc1ccc(O)cc1)C(=O)N[C@H](C(=O)NCC(N)=O)C(C)C", "note": "[DELTORPHINE II]", "values": [
      {"measurement": "EC50", "value": 0.331, "unit": "nM"}
    ]}
  ]
}
